The subject of one series is GMK cells. Put plainly: Cytotoxicity observed microscopically in the HSV-1 test. The note with it: symbol in parentheses.
Another series deals with MDCK cells. Put plainly: Cytotoxicity observed microscopically in the influenza virus test. The following applies: symbol in parentheses.
The mark [1] stands for this setting: compound concentration 10 µg/ml.
Where [2] appears, read: compound concentration 20 µg/ml.
[3] abbreviates: compound concentration 50 µg/ml.

SMILES strings stand for the structures. Structures can show the parent of a compound that is named as a salt.

As for `CC(C(O)(c1ccccc1)C1C2CC3C(C2)C31)C12CCCN1CCC2` (centres unmarked) [Prep. Ex. 6, 2-(1-azabicyclo[3.3.0]octan-5-yl)-1-phenyl-1-(3-tricyclo [2.2.1.0]heptyl)propan-1-ol], the results for the cytotoxicity in the series on GMK cells (setting [1]), with MDCK cells (setting [1]) and in the series with MDCK cells (setting [2]) were 1.00 (±), 0.00 (+) and 1.33 (+), respectively.

As to `OC(c1ccccc1)(C1C2CC3C(C2)C31)C12CCCN1CCC2` (stereo not drawn) [Prep. Ex. 3, (1R*)-1-(1-azabicyclo[3.3.0]octan-5-yl)1-phenyl-1-[(3'S*)-3-tricyclo[2.2.1.0]heptyl]methan-1-ol hydrochloride], the cytotoxicity is given as 0.00 (-) in the series with GMK cells (setting [1]); >3.00 (-) in the series on GMK cells (setting [3]); 0.83 (-) in the series on MDCK cells (setting [1]); 2.16 (-) in the series on MDCK cells (setting [2]); >3.33 (-) in the series with MDCK cells (setting [3]).

The record behind these values is patent EP0558321A1 (priority 1992, dated 1993).
